Here are results for two compounds from PubChem BioAssay AID492967 (ICCB-Longwood Screening Facility, Harvard Medical School, 2010).

Only a part is listed here, and it is no random draw. Some results for these compounds are left out of this collection, so the calls shown say nothing about other tests. Activity calls are given as the source filed them. Rule as the data show it: active = z-score mostly below about -2.9 (no sharp cut-off); inactive = mostly above about -1.9.

In the experiment the test system is CapD gamma-glutamyltranspeptidase (Bacillus anthracis Ames Ancestor). The experiment is described as follows: inhibition of CapD gamma-glutamyltranspeptidase – biochemical, fluorescence intensity, primary screen (AID 492967). The conditions noted are these: purified CapD enzyme, fluorescence intensity read-out; active compounds read low.
`COc1ccc(OC)c(C=C(C#N)C#N)c1`: the z-score is inactive: 0.225. For `O=C(OC1CN2CCC1CC2)C(CO)(c1ccccc1)c1ccccc1` (configuration not stated) the value was inactive: 0.21.
